Data on one compound can be found in ChEMBL document CHEMBL2440075, “In vitro structure-activity relationships of aplysinopsin analogs and their in vivo evaluation in the chick anxiety-depression model” (Bioorg Med Chem, 2013).

The species entered for the assay is Homo sapiens. Description: Selectivity ratio of IC50 for human MAOB to IC50 for human MAOA.

For the compound `CN1C(=N)N(C)/C(=C/c2c[nH]c3cc(Br)ccc23)C1=O`, the Ratio IC50 worked out at 80.2.
